From patent publication US4649139A, “1,2,4-triazines” (Burroughs Wellcome Co., priority 1983, dated 1987)

Assay: in vivo
Details: rat

## CC(C)n1nc(-c2cccc(Cl)c2Cl)c(N)nc1=N [Example 4, 5(3)-Amino-6-(2,3-dichlorophenyl)-2,3(2,5)-dihydro-3(5)-imino-2-isopropyl-1,2,4-triazine]
iv
  LD50: 8.34 mg/kg
sc
  LD50: 25.5 mg/kg
